Values quoted from earlier work, collected in US20240382467A1, “COMPOSITIONS AND METHODS FOR TREATING AND/OR PREVENTING LUNG INJURY” (published 2024).

Conditions: cited from earlier work

N=C1C(=O)NC(=O)c2cc(-c3ccccc3)sc21
plasma levels (at the selected doses (5 or 10 mg/kg IP, Example 14)): 1000 nM | plasma half-life (in vivo): long
